Test results as given in patent US9725445B2, “Cycloalkyl nitrile pyrazolo pyridones as Janus kinase inhibitors” (Merck Sharp & Dohme Corp., priority 2013, dated 2017).

By UniProt entry, the sequences of proteins in these tests, tags left out. Residues count along the entry.
UniProt O60674, 849-1124: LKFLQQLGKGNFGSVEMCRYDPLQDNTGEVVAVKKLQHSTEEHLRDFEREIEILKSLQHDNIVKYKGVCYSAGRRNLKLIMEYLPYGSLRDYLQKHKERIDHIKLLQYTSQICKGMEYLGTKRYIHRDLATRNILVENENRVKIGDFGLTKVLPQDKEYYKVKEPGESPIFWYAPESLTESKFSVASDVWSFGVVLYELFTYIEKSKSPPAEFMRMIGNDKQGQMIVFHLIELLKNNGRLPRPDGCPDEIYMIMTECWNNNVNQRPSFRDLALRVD

These compounds were tested against JAK2 (Homo sapiens (Human), UniProt O60674) (assay: Jak biochemical HTRF assay, JAK2). Details: recombinant GST-tagged catalytic domain.
Method: Jak Biochemical HTRF Assay Protocol
The ability of compounds to inhibit the activity of JAK1, JAK2, JAK3, and Tyk2 was measured using a recombinant purified GST-tagged catalytic domain for each enzyme (Invitrogen JAK1 #M4290, JAK2 #M4290, JAK3 #M4290, Tyk2 #M4290) in an HTRF format biochemical assay. […] The basic assay protocol is as follows: First, 250 nL of diluted compounds in DMSO were dispensed into the wells of a dry 384-well Black plate (Greiner #781076) using a Labcyte Echo 555 acoustic dispenser. Subsequent reagent additions employed an Agilent Bravo. […] After equilibration, 2 μL of 10×ATP in 1× assay buffer was added to initiate the kinase reaction and the plates were shaken and then incubated at room temperature for 120 minutes. […] Plates were shaken and centrifuged and then incubated 60 minutes at room temperature and then read on a Perkin Elmer Envision (λex=337 nm, λem=665 and 615 nm, TRF delay time=20 μs). HTRF signal=10,000*665 nm reading/615 nm reading. After normalization to untreated controls, the percent inhibition of the HTRF signal at each compound concentration was calculated. The plot of percent inhibition versus the log of compound concentration was fit with a 4-parameter dose response equation to calculate IC50 values.
Final Reaction Conditions were:
Examples of the instant invention were evaluated in JAK1 and JAK2 in vitro binding assays.

SMILES	IC50 [nM]
N#C[C@@H]1CCCC[C@@H]1n1nc(Nc2ccc(F)cc2)c2c(=O)[nH]ccc21 (racemic) [Example 1-1, (cis)-2-{3-[(4-Fluorophenyl)amino]-4-oxo-4,5-dihydro-1H-pyrazolo[4,3-c]pyridin-1-yl}cyclohexanecarbonitrile]	36
N#C[C@H]1CCCC[C@@H]1n1nc(Nc2ccc(F)cc2)c2c(=O)[nH]ccc21 (racemic) [Example 2-1, (trans)-2-{3-[(4-Fluorophenyl)amino]-4-oxo-4,5-dihydro-1H-pyrazolo[4,3-c]pyridin-1-yl}cyclohexanecarbonitrile]	7.5
CC(C)OC(=O)C(C)(C)C(O)(c1ccc(Nc2nn([C@H]3CCCC[C@@H]3C#N)c3cc[nH]c(=O)c23)cc1)C(F)(F)F (single isomer, unassigned) [Example 3-119, (R or S) Isopropyl 3-(4-((1-((1S,2S)-2-cyanocyclohexyl)-4-oxo-4,5-dihydro-1H-pyrazolo[4,3-c]pyridin-3-yl)amino)phenyl)-4,4,4-trifluoro-3-hydroxy-2,2-dimethylbutanoate]	18.6
CC(C)OC(=O)C(C)(C)C(O)(c1ccc(Nc2nn([C@H]3CCCC[C@@H]3C#N)c3cc[nH]c(=O)c23)cc1)C(F)(F)F (single isomer, unassigned) [Example 3-120, (R or S) Isopropyl 3-(4-((1-((1S,2S)-2-cyanocyclohexyl)-4-oxo-4,5-dihydro-1H-pyrazolo[4,3-c]pyridin-3-yl)amino)phenyl)-4,4,4-trifluoro-3-hydroxy-2,2-dimethylbutanoate]	2.7
N#C[C@H]1CCCC[C@@H]1n1nc(Nc2ccc3c(c2)CC2(CC2)C3(O)C(F)(F)F)c2c(=O)[nH]ccc21 (single isomer, unassigned) [Example 3-123, (1S,2S)-2-(3-(((R or S)-1′-hydroxy-1′-(trifluoromethyl)-1′,3′-dihydrospiro[cyclopropane-1,2′-inden]-5′-yl)amino)-4-oxo-4,5-dihydro-1H-pyrazolo[4,3-c]pyridin-1-yl)cyclohexanecarbonitrile]	0.29
CN(C)C(c1ccc(Nc2nn([C@H]3CCCC[C@@H]3C#N)c3cc[nH]c(=O)c23)cc1)C(F)(F)F (single isomer, unassigned) [Example 9-3, (1S,2S)-2-(3-(4-((S or R)-1-(Dimethylamino)-2,2,2-trifluoroethyl)phenylamino)-4-oxo-4,5-dihydropyrazolo[4,3-c]pyridin-1-yl)cyclohexanecarbonitrile]	0.39
CN(C)C(c1ccc(Nc2nn([C@H]3CCCC[C@@H]3C#N)c3cc[nH]c(=O)c23)cc1)C(F)(F)F (single isomer, unassigned) [Example 9-4, (1S,2S)-2-(3-(4-((R or S)-1-(Dimethylamino)-2,2,2-trifluoroethyl)phenylamino)-4-oxo-4,5-dihydropyrazolo[4,3-c]pyridin-1-yl)cyclohexanecarbonitrile]	0.25
CC(c1ccc(Nc2nn([C@H]3CCCC[C@@H]3C#N)c3cc[nH]c(=O)c23)cc1)n1nccn1 (single isomer, unassigned) [Example 15-21, (1S,2S)-2-[4-oxo-3-({4-[(1S or 1R)-1-(2H-1,2,3-triazol-2-yl)ethyl]phenyl}amino)-4,5-dihydro-1H-pyrazolo[4,3-c]pyridin-1-yl]cyclohexanecarbonitrile]	0.51
CC(c1ccc(Nc2nn([C@H]3CCCC[C@@H]3C#N)c3cc[nH]c(=O)c23)cc1)n1nccn1 (single isomer, unassigned) [Example 15-22, (1S,2S)-2-[4-oxo-3-({4-[(1R or 1S)-1-(2H-1,2,3-triazol-2-yl)ethyl]phenyl}amino)-4,5-dihydro-1H-pyrazolo[4,3-c]pyridin-1-yl]cyclohexanecarbonitrile]	0.57
CC(C)C(c1ccc(Nc2nn([C@H]3CCCC[C@@H]3C#N)c3cc[nH]c(=O)c23)cc1)n1nccn1 (single isomer, unassigned) [Example 15-30, (1S,2S)-2-[3-({4-[(1S or 1R)-2-methyl-1-(2H-1,2,3-triazol-2-yl)propyl]phenyl}amino)-4-oxo-4,5-dihydro-1H-pyrazolo[4,3-c]pyridin-1-yl]cyclohexanecarbonitrile]	0.42
CC(C)C(c1ccc(Nc2nn([C@H]3CCCC[C@@H]3C#N)c3cc[nH]c(=O)c23)cc1)n1nccn1 (single isomer, unassigned) [Example 15-31, (1S,2S)-2-[3-({4-[(1R or 1S)-2-methyl-1-(2H-1,2,3-triazol-2-yl)propyl]phenyl}amino)-4-oxo-4,5-dihydro-1H-pyrazolo[4,3-c]pyridin-1-yl]cyclohexanecarbonitrile]	0.27
CC(c1ccc(Nc2nn([C@H]3CCCC[C@@H]3C#N)c3cc[nH]c(=O)c23)cc1)n1ccnn1 (single isomer, unassigned) [Example 15-41, (1S,2S)-2-[4-oxo-3-({4-[(1R or 1S)-1-(1H-1,2,3-triazol-1-yl)ethyl]phenyl}amino)-4,5-dihydro-1H-pyrazolo[4,3-c]pyridin-1-yl]cyclohexanecarbonitrile]	0.72
CC(c1ccc(Nc2nn([C@H]3CCCC[C@@H]3C#N)c3cc[nH]c(=O)c23)cc1)n1ccnn1 (single isomer, unassigned) [Example 15-42, (1S,2S)-2-[4-oxo-3-({4-[(1S or 1R)-1-(1H-1,2,3-triazol-1-yl)ethyl]phenyl}amino)-4,5-dihydro-1H-pyrazolo[4,3-c]pyridin-1-yl]cyclohexanecarbonitrile]	0.53
N#C[C@@H]1CCCCC[C@H]1n1nc(Nc2ccc3c(c2)CN(C(=O)N2CCCCC2)C3)c2c(=O)[nH]ccc21 (single isomer, unassigned) [Example 15-53, (1R,2R or 1S,2S)-2-(4-oxo-3-{[2-(piperidin-1-ylcarbonyl)-2,3-dihydro-1H-isoindol-5-yl]amino}-4,5-dihydro-1H-pyrazolo[4,3-c]pyridin-1-yl)cycloheptanecarbonitrile]	1.1

More lines, now with the values ahead:

IC50 [nM]	SMILES
0.88	N#C[C@H]1CCCC[C@@H]1n1nc(Nc2ccc3c(c2)CC2(CC2)C3(O)C(F)(F)F)c2c(=O)[nH]ccc21 (single isomer, unassigned) [Example 3-124, (1S,2S)-2-(3-(((R or S)-1′-hydroxy-1′-(trifluoromethyl)-1′,3′-dihydrospiro[cyclopropane-1,2′-inden]-5′-yl)amino)-4-oxo-4,5-dihydro-1H-pyrazolo[4,3-c]pyridin-1-yl)cyclohexanecarbonitrile]
1.9	CC1c2cc(Nc3nn([C@H]4CCCC[C@@H]4C#N)c4cc[nH]c(=O)c34)ccc2S(=O)(=O)N1CC(F)(F)F (single isomer, unassigned) [Example 3-128, (1S,2S)-2-(3-(((R or S)-3-methyl-1,1-dioxido-2-(2,2,2-trifluoroethyl)-2,3-dihydrobenzo[d]isothiazol-5-yl)amino)-4-oxo-4,5-dihydro-1H-pyrazolo[4,3-c]pyridin-1-yl)cyclohexanecarbonitrile]
2.6	CC1c2cc(Nc3nn([C@H]4CCCC[C@@H]4C#N)c4cc[nH]c(=O)c34)ccc2S(=O)(=O)N1CC(F)(F)F (single isomer, unassigned) [Example 3-129, (1S,2S)-2-(3-(((R or S)-3-methyl-1,1-dioxido-2-(2,2,2-trifluoroethyl)-2,3-dihydrobenzo[d]isothiazol-5-yl)amino)-4-oxo-4,5-dihydro-1H-pyrazolo[4,3-c]pyridin-1-yl)cyclohexanecarbonitrile]
8.6	CC(C)(C)N1Cc2cc(Nc3nn([C@H]4CCCCC[C@@H]4C#N)c4cc[nH]c(=O)c34)ccc2S1(=O)=O (single isomer, unassigned) [Example 3-176, (1S,2S or 1R,2R)-2-{3-[(2-tert-butyl-1,1-dioxido-2,3-dihydro-1,2-benzisothiazol-5-yl)amino]-4-oxo-4,5-dihydro-1H-pyrazolo[4,3-c]pyridin-1-yl}cycloheptanecarbonitrile]
0.31	CC(C)(C)N1Cc2cc(Nc3nn([C@@H]4CCCCC[C@H]4C#N)c4cc[nH]c(=O)c34)ccc2S1(=O)=O (single isomer, unassigned) [Example 3-177, (1R,2R or 1S,2S)-2-{3-[(2-tert-butyl-1,1-dioxido-2,3-dihydro-1,2-benzisothiazol-5-yl)amino]-4-oxo-4,5-dihydro-1H-pyrazolo[4,3-c]pyridin-1-yl}cycloheptanecarbonitrile]
3	CC(C)(C)N1Cc2cc(Nc3nn([C@H]4CCCCC[C@H]4C#N)c4cc[nH]c(=O)c34)ccc2S1(=O)=O (single isomer, unassigned) [Example 3-178, (1R,2S or 1S,2R)-2-{3-[(2-tert-butyl-1,1-dioxido-2,3-dihydro-1,2-benzisothiazol-5-yl)amino]-4-oxo-4,5-dihydro-1H-pyrazolo[4,3-c]pyridin-1-yl}cycloheptanecarbonitrile]
2.2	CC(C)(C)N1Cc2cc(Nc3nn([C@@H]4CCCCC[C@@H]4C#N)c4cc[nH]c(=O)c34)ccc2S1(=O)=O (single isomer, unassigned) [Example 3-179, (1S,2R or 1R,2S)-2-{3-[(2-tert-butyl-1,1-dioxido-2,3-dihydro-1,2-benzisothiazol-5-yl)amino]-4-oxo-4,5-dihydro-1H-pyrazolo[4,3-c]pyridin-1-yl}cycloheptanecarbonitrile]
